Test system: primary cerebellum granule cells of rats
Test: Protective effects of compounds on primary cerebellum granule cells against glutamate-induced excitotoxic injury (MTT cell viability)
Type: cell-based
Details: protective effect on rat's nerve cells, pre-protection 2 h, then for 24 h, absorbance at 570 nm

Question: For CC12CC3CC(C)(C1)CC(N)(C3)C2 [memantine, reference compound], which EC50 is on record?
Answer: 2720 nM
